Experiment: Storage stability of lipid I
Details: 4 : 1 mixture of DMSO and 0.05M NaHCO3 at -20 °C

In the case of “MurNAc(pentapeptide)-pyrophosphoryl prenol [Lipid I]”, the “Storage time without decomposition” value is reported as “over 8 months”.

— article PMC7286788 (ACS infectious diseases, 2019)
